{
  "source": "paper PMC5344956",
  "about": "(Cancer Chemotherapy and Pharmacology, 2017)",
  "origin": "cited, not measured here",
  "test_system": "BCR–ABL",
  "conditions": "preclinical in vitro studies ref 7, 9; cited from earlier work",
  "data": [
    {"molecule": "Cc1ccc(C(=O)Nc2ccc(CN3CCN(C)CC3)c(C(F)(F)F)c2)cc1C#Cc1cnc2cccnn12.Cl", "note": "[Ponatinib, 3-(imidazo[1,2-b]pyridazin-3-ylethynyl)-4-methyl-N-(4-((4-methylpiperazin-1-yl)methyl)-3-(trifluoromethyl)phenyl)benzamide hydrochloride]", "values": [
      {"measurement": "concentration that suppresses the emergence of any single mutation", "value": 40, "unit": "nM"}
    ]}
  ]
}
